Measurements: US20180340001A1, “Probes for 18F Positron Emission Tomography Imaging” (The Texas A&M University System, priority 2017, published 2018)

Assays:
[1] = Stability on exposure to ambient atmosphere; conditions: white powder may become an acidic oil (pH<2) after 15 min exposure to air
[2] = Hydrolytic stability monitored by 19F NMR in phosphate buffer pH 7.5; conditions: D2O-CD3CN (8/2 vol), pH 7.5, phosphate buffer 500 mM

In the case of `F[P-](F)(F)(F)(F)c1ccccc1.[K+]`, the “stability to ambient atmosphere” value [1] is reported as “hydrolysed” and the “time to complete hydrolysis” value [2] is reported as “less than 5 min”.
